## Yeast mating assay B: variants of the scFv Ab-14

Reference: Li et al. 2023, doi:10.1038/s41467-023-39022-2. File: FLAb, binding data.

The target is the same throughout: PDVDLGDISGINAS, from the HR2 region of SARS-CoV-2 spike.

Each scFv is VH, the linker GGGGSGGGGSGGGGS, VL, as in the parent Ab-14, and differs from it in the CDRs of the light chain only.
VH: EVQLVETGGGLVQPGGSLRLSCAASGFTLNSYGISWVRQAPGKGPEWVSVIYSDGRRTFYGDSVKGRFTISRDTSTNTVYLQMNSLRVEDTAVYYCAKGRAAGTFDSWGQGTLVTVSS
VL: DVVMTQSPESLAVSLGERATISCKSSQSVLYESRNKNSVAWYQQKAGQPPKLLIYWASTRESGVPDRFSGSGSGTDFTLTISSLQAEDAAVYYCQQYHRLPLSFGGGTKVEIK

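The parent was found by panning a naive human phage display library on the peptide. Designed CDR sequences, proposed from the first random library and measured here. Group labels follow the data file (En: ensemble of fine-tuned language models; GP: Gaussian process model; HC: hill climbing; Gen: genetic algorithm; Gibbs: Gibbs sampling; a sequence that several methods proposed may carry one label only). In AlphaSeq, yeast of one mating type display the scFv and yeast of the other type display the target. The frequency of each diploid, read from paired DNA barcodes, reflects how well the two displayed proteins bind. Scores were corrected for input abundance and mapped to Kd with protein pairs of known affinity run in the same pool. Mating was done six times.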

Variants are written as CDR1, CDR2 and CDR3 of the light chain (limits as in the source). Parent: KSSQSVLYESRNKNSVA, WASTRES, QQYHRLPLS. This list holds designs with more than six substitutions. Affinities are written as log10 Kd with Kd in nM; a lower number is a better binder. Averages over replicates are reported, and they cover detected replicates only. "nd" means that the variant was in the library but no mating with the target was seen in any replicate; the authors take this as a sign of poor binding, and no number exists. The parent sequence was in this pool as ten entries: three were never detected, three once, and four in most replicates, with averages from 0.34 to 2.37. Empty control strains, which show no peptide, gave a signal in 4% of pairings with all light chain designs; the median was 2.64 and 95% of these signals were weaker than 1.59. No background was subtracted. Also given: how often the same scFv was detected with the empty control strains. The authors' rule: three or more of the six replicates give a measured affinity, fewer mean a poor binder. A sequence measured in both rounds can read differently, since the two assays cover different ranges.

- MVSQLMLWGLHAKNSIA | EAVMRLN | QQYDRLPLI [En_Gen] = nd (0 of 6 replicates; controls 0 of 18)
- KIGATLNMMSHKKNNVA | DLVTREN | QQYHRLPLS [En_Gen] = 0.79 (6 of 6 replicates; controls 1 of 18)
- MISQMYNMGQFAINSVA | QASQRCN | QQYDRLPLM [En_Gen] = 0.29 (4 of 6 replicates; controls 0 of 18)
- DMTVQFNGASKIQNSVA | HGVEKID | QQYVRLPLA [En_Gibbs] = 0.91 (6 of 6 replicates; controls 0 of 18)
- HIDQYTSYDNGENRAIA | DVSIKDY | QQYARLPLL [En_Gibbs] = 0.52 (6 of 6 replicates; controls 2 of 18)
- KLSLFYRVETRAKNSVA | DNSTRES | QDYDRLPLS [En_HC] = 3.74 (1 of 6 replicates; controls 2 of 18)
- KFMGSDEYQMQEQGNVA | QTEQKCN | QQYFRLPLT [En_Gibbs] = 0.59 (6 of 6 replicates; controls 0 of 18)
- RLQQEHVGYPKKMNAIA | QGSQRCH | QSYDRLPLS [En_Gibbs] = 1.52 (6 of 6 replicates; controls 1 of 18)
- KLYQNVGTMSHNKQSIA | DMERRMD | QQYHRLPLS [En_HC] = -0.11 (6 of 6 replicates; controls 1 of 18)
- YVSGQIDEGWNQQEAIA | QVTYKED | QQYYKLPLS [En_Gibbs] = nd (0 of 6 replicates; controls 0 of 18)
- KMSPSELYLDRNCNAVA | QASQRES | QQYHRLPLS [GP_Gibbs] = 0.62 (6 of 6 replicates; controls 0 of 18)
- KLSQSMPYEQRNKNSVA | NASLRES | QCYHRLPLS [GP_Gibbs] = 1.18 (6 of 6 replicates; controls 1 of 18)
- IISGVMLMESRNKNSVA | NAETREY | QHYDRLPLS [En_HC] = 0.44 (6 of 6 replicates; controls 1 of 18)
- KLSTSQLYWSRNFNAVA | QASTRET | QQYHRLPLS [GP_Gibbs] = 0.62 (6 of 6 replicates; controls 0 of 18)
- KLQMLELYESRWCNSVA | QASTRES | QQYHRLPLS [GP_Gibbs] = 2.33 (3 of 6 replicates; controls 1 of 18)
- HLHTINYTEAIGTNSIA | DANLHVT | QQYFRLPIM [En_Gibbs] = 0.98 (6 of 6 replicates; controls 0 of 18)
- KVSEFMRGLMKKQDSIA | DNETRGA | QQYDRLPLS [En_Gen] = 1.35 (6 of 6 replicates; controls 1 of 18)
- KLYQSTAMTSRMKNNVA | DLNERGR | QQYFRLPLS [En_HC] = 0.37 (6 of 6 replicates; controls 0 of 18)
- MITAMLRGVGRDKNSVA | NAQTREQ | QHYNRLPLS [En_HC] = 3.37 (1 of 6 replicates; controls 1 of 18)
- TISQMTSLFSQSINNVA | EVSTRIE | QQYDRLPLV [En_Gen] = 0.92 (6 of 6 replicates; controls 0 of 18)
- TISQSAHMESHNKNSVA | DLNVRGS | QQYDRLPLS [En_HC] = 1.44 (6 of 6 replicates; controls 0 of 18)
- KLQQQNLYESRNKNNVA | EASTREQ | QQYHRLPLS [GP_Gibbs] = -0.42 (6 of 6 replicates; controls 0 of 18)
- MMSQVTGLGQRHRNNVA | QTSTREE | QQYDRLPLV [En_Gen] = 0.43 (6 of 6 replicates; controls 0 of 18)
- NIYQSMNFLGRVMNSIA | DASTIWD | QQYHRLPLS [En_HC] = 0.45 (6 of 6 replicates; controls 0 of 18)
- TLYGLSNSMSINKNNVA | EMSTREP | QQYDRLPLI [En_Gen] = 0.56 (6 of 6 replicates; controls 0 of 18)
- KIAHAPLEYNEKMNSVA | NGACAEI | QQYDRLPLA [En_Gibbs] = 0.43 (6 of 6 replicates; controls 1 of 18)
- KISQMVTYESTWHNAIA | QTSEREA | QQYHRLPFS [En_HC] = 0.44 (6 of 6 replicates; controls 1 of 18)
- KISMSYRYESEAKNSIA | EMTTREE | QSYHRLPLS [En_HC] = 2.08 (5 of 6 replicates; controls 0 of 18)
- KVSWLHPYWSRNWNSVA | NASTREQ | QQYHRLPLS [GP_Gibbs] = 0.38 (6 of 6 replicates; controls 0 of 18)
- SMFEKEYEELQPENNIA | DETERMV | QQYFRLPLL [En_Gibbs] = 1.67 (1 of 6 replicates; controls 0 of 18)
- MISQMEAPAGQQESSIA | HGGTKSE | QQYNRLPLA [En_Gibbs] = 0.72 (1 of 6 replicates; controls 1 of 18)

The first 3 entries again:

- MVSQLMLWGLHAKNSIA | EAVMRLN | QQYDRLPLI [En_Gen] = nd (0 of 6 replicates; controls 0 of 18)
- KIGATLNMMSHKKNNVA | DLVTREN | QQYHRLPLS [En_Gen] = 0.79 (6 of 6 replicates; controls 1 of 18)
- MISQMYNMGQFAINSVA | QASQRCN | QQYDRLPLM [En_Gen] = 0.29 (4 of 6 replicates; controls 0 of 18)